Assay results: publication PMC4756533, “Oestrogen receptor β regulates epigenetic patterns at specific genomic loci through interaction with thymine DNA glycosylase” (Epigenetics & Chromatin, 2016)

By UniProt entry, the sequences of proteins in these tests, tags left out.
UniProt Q92731, whole entry: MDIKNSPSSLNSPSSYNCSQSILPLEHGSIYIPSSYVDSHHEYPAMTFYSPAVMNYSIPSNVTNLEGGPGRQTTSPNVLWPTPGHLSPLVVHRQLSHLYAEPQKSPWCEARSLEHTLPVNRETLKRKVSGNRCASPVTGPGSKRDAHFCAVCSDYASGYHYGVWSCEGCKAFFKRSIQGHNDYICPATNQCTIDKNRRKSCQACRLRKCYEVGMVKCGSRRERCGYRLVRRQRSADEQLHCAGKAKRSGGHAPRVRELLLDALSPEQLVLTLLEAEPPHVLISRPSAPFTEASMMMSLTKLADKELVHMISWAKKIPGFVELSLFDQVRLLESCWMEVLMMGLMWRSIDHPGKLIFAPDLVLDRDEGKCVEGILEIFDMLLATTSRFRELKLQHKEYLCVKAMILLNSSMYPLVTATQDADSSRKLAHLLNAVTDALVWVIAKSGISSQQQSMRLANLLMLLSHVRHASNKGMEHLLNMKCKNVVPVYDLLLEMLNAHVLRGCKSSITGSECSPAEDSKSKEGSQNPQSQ

Target: GST-tagged ERβ (oestrogen receptor beta coupled to glutathion-S-transferase) (human, UniProt Q92731)
Test: cell-based or functional assay

3x ERE-luciferase reporter activity of ERβ (pSG5-hERβ) in Tdg-/- MEFs co-transfected with 50, 150 and 300 ng TDG plasmid (pSHH25-TDG), in the absence of ligand; increase by TDG: 2 fold
3x ERE-luciferase reporter activity of ERβ (pSG5-hERβ) in Tdg-/- MEFs co-transfected with 50, 150 and 300 ng TDG plasmid (pSHH25-TDG), in the presence of 10 nM E2; increase by TDG: 2.5 fold
B1: recombinant thymine DNA glycosylase (hTDG) (enzyme, human, UniProt Q13569 1-410, looked up)
chain: MEAENAGSYSLQQAQAFYTFPFQQLMAEAPNMAVVNEQQMPEEVPAPAPAQEPVQEAPKGRKRKPRTTEPKQPVEPKKPVESKKSGKSAKSKEKQEKITDTFKVKRKVDRFNGVSEAELLTKTLPDILTFNLDIVIIGINPGLMAAYKGHHYPGPGNHFWKCLFMSGLSEVQLNHMDDHTLPGKYGIGFTNMVERTTPGSKDLSSKEFREGGRILVQKLQKYQPRIAVFNGKCIYEIFSKEVFGVKVKNLEFGLQPHKIPDTETLCYVMPSSSARCAQFPRAQDKVHYYIKLKDLRDQLKGIERNMDVQEVQYTFDLQLAQEDAKKMAVKEEKYDPGYEAAYGGAYGENPCSSEPCGFSSNGLIESVELRGESAFSGIPNGQWMTQSFTDQIPSFSNHCGTQEQEEESHA
